B1: IFN β: interferon beta (IFN β 1a) (protein, UniProt P01574 22-187, looked up)
Interferon beta: MSYNLLGFLQRSSNFQCQKLLWQLNGRLEYCLKDRMNFDIPEEIKQLQQFQKEDAALTIYEMLQNIFAIFRQDSSSTGWNETIVENLLANVYHQINHLKTVLEEKLEKEDFTRGKLMSSLHLKRYYGRILHYLKAKEYSHCAWTIVRVEILRNFYFINRLTGYLRN

What was measured:
Type in all cases: cell-based, human
ACHN cells [1] = assay: cell cycle analysis, propidium iodide staining of nuclei; conditions: IFN 50 U/ml over 48 hr; 48 hr after IFN treatment
Description: To gain some insight into which genes to focus, a cell cycle analysis was undertaken using propidium iodide staining of nuclei. […] Analysis was performed by flow cytometry using Modfit software (Verity software house, Topsham, ME).

RASSF1A = assay: RT-PCR for RASSF1A; conditions: IFN 50 U/ml over 48 hr, DNMT1 AS pretreated ACHN cells
Description: To assess reactivation, RT-PCR was performed with primers that amplified RASSF1 variants regulated by a promoter that has been described as hypermethylated in cancer. Primers were [NT] (sense) (SEQ ID NO:45) and [NT] (antisense) (SEQ ID NO:46). Settings used were 95° C.-4 min, (95° C.-1 min, 52° C.-30 sec, 72° C.-30 sec for 30 to 35 cycles), 72° C.-4 min. GAPDH was amplified with the settings 95° C.-4 min, (95° C.-45 sec, 55° C.-30 sec, 72° C.-50 sec for 15 to 25 cycles), 72° C.-4 min. GAPDH primers were [NT] (sense) (SEQ ID NO:47) and [NT] (antisense) (SEQ ID NO:48). For sequencing of full length RASSF1 cDNA RT-PCR with primers (5' to 3') [NT] (sense) (SEQ ID NO:49) and [NT] (antisense) (SEQ ID NO:50) was performed using proofreading platinum Pfx polymerase (Invitrogen, Carlsbad, Calif.) and the following settings: Denaturation at 95° C. for 4 min followed by 30 cycles of denaturation at 95° C. for 45 sec, annealing at 58° C. for 30 sec, and extension at 68° C. for 3 min followed by final extension at 68° C. for 8 min. Products were cloned into Zero Blunt cloning vector for sequencing and then into pcDNA3.1 for overexpression.

RASSF1A protein = assay: immunoblotting for RASSF1A; conditions: IFN 50 U/ml over 48 hr
ACHN cells [2] = assay: real-time RT-PCR for stat1, stat2 genes; conditions: mismatched control treated cells, 50 U/ml IFN-β over 16 hr
[3] = mismatch oligonucleotide pretreated ACHN cells

Molecule | cell cycle distribution (ACHN cells [1]) | transcription of RASSF1A, semi-quantitative RT-PCR (RASSF1A) | RASSF1A protein (RASSF1A protein; [3]) | stat1 expression increase (ACHN cells [2]) [fold] | stat2 expression increase (ACHN cells [2]) [fold] | RASSF1A protein (RASSF1A protein; DNMT1 AS pretreated ACHN cells)
IFN α: interferon alpha (IFN alpha 2b) | accumulation of cells in S phase and G2/M | not affected | not | – | – | –
B1 | accumulation of cells in S phase and G2/M | not affected | not | 2.24 | 6.94 | increased RASSF1A protein
